{
  "sequences": {"note": "Sequences of proteins named here, by UniProt entry; tags and fusion partners are left off. Residues count along the entry.", "UniProt P53350, 326-603 limits assumed": "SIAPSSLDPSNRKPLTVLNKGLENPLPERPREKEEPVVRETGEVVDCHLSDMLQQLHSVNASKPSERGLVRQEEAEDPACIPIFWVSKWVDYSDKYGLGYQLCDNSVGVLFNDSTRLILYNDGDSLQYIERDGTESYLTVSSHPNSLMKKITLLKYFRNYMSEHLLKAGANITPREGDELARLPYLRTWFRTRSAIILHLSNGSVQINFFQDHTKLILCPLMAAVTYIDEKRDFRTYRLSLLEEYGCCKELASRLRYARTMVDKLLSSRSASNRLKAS"},
  "source": "paper PMC4536914",
  "about": "(Chembiochem : a European journal of chemical biology, 2012)",
  "target": "Plk1 PBD (Homo sapiens, UniProt P53350)",
  "test": "Plk1 PBD fluorescence polarization competition binding assay",
  "conditions": "2.56 µM",
  "data": [
    {"substance": "PLHSpT [compound 1]", "values": [
      {"measurement": "inhibition at the highest concentration tested", "value": "40 ± 0.2", "unit": "%"}
    ]}
  ]
}
